Tests used:
[1] = test system: ICAM-1 expression, BEAS2B cells; assay: Poly I:C-induced ICAM-1 expression in BEAS2B cells; format: cell-based; conditions: Homo sapiens, BEAS-2B; read-out: Poly IC induced ICAM1 in BEAS2B, IC50
Procedure: (f) Poly I:C-Induced ICAM-1 Expression in BEAS2B Cells
Poly I:C is used in these studies as a simple, RNA virus mimic. Poly I:C-Oligofectamine mixture (1 μg/mL Poly I:C, ±2% Oligofectamine, 25 μL; Invivogen Ltd., San Diego, Calif., and Invitrogen, Carlsbad, Calif., respectively) is transfected into BEAS2B cells (human bronchial epithelial cells, ATCC). Cells are pre-incubated with final concentrations of test compounds for 2 hr and the level of ICAM1 expression on the cell surface is determined by cell-based ELISA. […]
The cells are washed with PBS-Tween (3×200 μL) and incubated with the secondary antibody (100 μL; HRP-conjugated anti-rabbit IgG, Dako Ltd., Glostrup, Denmark). […] The ICAM-1 signal is detected by reading the absorbance at 450 nm against a reference wavelength of 655 nm using a spectrophotometer. The cells are then washed with PBS-Tween (3×200 μL) and total cell numbers in each well are determined by reading absorbance at 595 nm after Crystal Violet staining (50 μL of a 2% solution in PBS) and elution by 1% SDS solution (100 μL) in distilled water. The measured OD 450-655 readings are corrected for cell number by dividing with the OD595 reading in each well. The inhibition of ICAM-1 expression is calculated at each concentration of test compound by comparison with vehicle control.

By UniProt entry, the sequences of proteins in these tests, tags left out.
UniProt P12931, whole entry: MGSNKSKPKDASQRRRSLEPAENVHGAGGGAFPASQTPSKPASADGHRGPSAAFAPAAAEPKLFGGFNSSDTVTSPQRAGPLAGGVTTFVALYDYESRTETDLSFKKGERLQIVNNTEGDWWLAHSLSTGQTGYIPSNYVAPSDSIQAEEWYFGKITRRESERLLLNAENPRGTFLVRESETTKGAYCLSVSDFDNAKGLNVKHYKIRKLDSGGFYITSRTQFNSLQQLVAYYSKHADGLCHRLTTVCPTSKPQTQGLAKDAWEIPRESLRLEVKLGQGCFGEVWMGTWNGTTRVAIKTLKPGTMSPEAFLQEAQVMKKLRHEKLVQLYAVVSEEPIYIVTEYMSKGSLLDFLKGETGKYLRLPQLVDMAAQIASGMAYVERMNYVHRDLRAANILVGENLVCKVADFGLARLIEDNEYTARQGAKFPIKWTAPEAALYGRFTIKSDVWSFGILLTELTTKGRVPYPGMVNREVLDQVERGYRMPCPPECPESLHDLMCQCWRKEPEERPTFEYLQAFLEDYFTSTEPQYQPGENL

cSrc = cSrc (Homo sapiens, UniProt P12931); assay: c-Src enzyme inhibition (FRET); format: biochemical; conditions: Table 4a1
Procedure: The enzyme inhibitory activities of compounds disclosed herein are determined by FRET using synthetic peptides labelled with both donor and acceptor fluorophores (Z-LYTE, Invitrogen Ltd., Paisley, UK).
The relevant enzyme (3000 ng/mL or 2000 ng/mL respectively, 2.5 μL) is incubated with the test compound (either 4 μg/mL, 0.4 μg/mL, 0.04 μg/mL, or 0.004 μg/mL, 2.5 μL each) for 2 hr at RT. The FRET peptides (8 μM, 2.5 μL), and appropriate ATP solutions (2.5 μL, 800 μM for c-Src, and 60 μM ATP for Syk) are then added to the enzymes/compound mixtures and incubated for 1 hr. Development reagent (protease, 5 μL) is added for 1 hr prior to detection in a fluorescence microplate reader (Varioskan® Flash, ThermoFisher Scientific).
In all cases, the site-specific protease cleaves non-phosphorylated peptide only and eliminates the FRET signal. Phosphorylation levels of each reaction are calculated using the ratio of coumarin emission (donor) over fluorescein emission (acceptor), for which high ratios indicate high phosphorylation and low ratios indicate low phosphorylation levels.

IC50 (cSrc): 2 nM
SMILES: Cc1ccc(-n2nc(C(C)C)cc2NC(=O)Nc2ccc(Oc3ccnc(Nc4cccc(C(=O)NCCN5CCOCC5)c4)n3)c3ccccc23)cc1 [Example 19, 3-((4-((4-(3-(3-isopropyl-1-(p-tolyl)-1H-pyrazol-5-yl)ureido)naphthalen-1-yl)oxy)pyrimidin-2-yl)amino)-N-(2-morpholinoethyl)benzamide]
IC50 [1]: 2.1 nM

Source: patent US20140057915A1, “KINASE INHIBITORS” (TOPIVERT PHARMA LIMITED, priority 2012, published 2014)
